Results reported in article PMC12920379 (European Journal of Nuclear Medicine and Molecular Imaging, 2025).

What was measured:
T47D xenografts = details: T47D-mice
Protocol: Male athymic Balb/C nude mice (age: 6 weeks, weight: 16–20 g) were implanted with prostate PC3 cells (3 × 10^6/100 µL PBS) into their right shoulder. Female athymic Balb/C nude mice (age: 6 weeks, weight: 16–20 g) were implanted with breast T47D cells (12 × 10^6 in 100 µL of PBS: Matrigel, 1:1) into their right shoulder. For the development of the breast tumor models, mice were also implanted with home-made silicon-based hormone pellets (1 mg estrogen/pellet) one week before the implantation of the breast cancer cells. The animals were used for biodistribution and SPECT/CT imaging studies, once tumors reached 250–300 mm³.
Selected organs were dissected and weighed, and the radioactivity in the tissue samples was counted in a γ-counter. Biodistribution data are given as per cent of injected activity per gram of tissue (% I.A./g) and expressed as mean values ± SD (n = 3–4).
Blood samples were collected at multiple time points (1–240 min p.i.) and measured using a γ-counter. Blood half-lives were determined with GraphPad Prism using a Two-Phase Decay Model, while tumor, pancreas, and kidney half-lives were calculated from biodistribution data using a One-Phase Decay Model (supplementary data).
The areas under the time-activity curves (AUC) in the tumor, blood, pancreas and kidneys were calculated from the non-corrected biodistribution data using GraphPad Prism.

[1] = In vivo plasma protein binding in healthy mice; details: 5 min p.i.
Protocol: Blood was immediately transferred to pre-chilled heparinized tubes and centrifuged (5 min, 1700 g, 4 °C) for plasma isolation. The isolated plasma was then transferred into a 2 mL Eppendorf and a double volume of a 1:1 (v/v) ACN:MeOH solution was added to induce the precipitation of the plasma proteins. The proteins were separated by centrifugation (10 min, 9660 g, 4 °C). After careful separation of the two phases (precipitated proteins and supernatant), the respective activities were measured in a γ-counter to determine the percentage of the radiotracer bound to the plasma proteins.

In the case of “[^47Sc]Sc-LF1: scandium-47 labeled statine-based GRPR antagonist LF1 (AAZTA^5-Pip-D-Phe-Gln-Trp-Ala-Val-Gly-His-Sta-Leu-NH2) (FQWAVGH; 47Sc-AAZTA5-Pip; Sta-Leu-NH2 C-terminus; printed: Phe-Gln-Trp-Ala-Val-Gly-His-)”, the Kidneys uptake (T47D xenografts; 4 h p.i.) is reported as 2.1 ± 0.3 % I.A./g, the “Effective half-life in tumor” value (T47D xenografts; one-phase decay model) is reported as 3.2 h and the Plasma protein binding [1] is reported as 3.2%.
